# According to PubChem BioAssay AID602233 (National Center for Advancing Translational Sciences (NCATS), 2012):
# Where “and” joins values, the source holds several entries; their conditions need not be identical. Identical values can stand only once. This is a selection; strong and weak results do not stand in their true shares. Some of these compounds have results that are not shown, active ones among them. Calls of active or inactive are those of the source. Calls come from the whole dose curve; as a rule, active = well fitted inhibition curve with a large enough effect; inconclusive = small, poorly fitted or top-dose-only effect; inactive = no such curve, though single readings can be large or run the other way.
# Molecular target: Phosphoglycerate kinase, glycosomal (Trypanosoma brucei brucei) (UniProt P07378)
# Experiment: qHTS Assay to Find Inhibitors of Phosphoglycerate Kinase; note: nearly all actives have a fitted effect of over 60% in size
# Conditions: PGK/GAPDH coupled, Kinase-Glo luminescence, 60 min; activity change, negative = inhibition: at 57.5 µM (top of the series)
# Text: Several species of the Trypanosomatidae family of parasitic protozoans cause a spectrum of diseases throughout the tropical and subtropical world. Sleeping sickness, caused by two subspecies of Trypanosoma brucei, is endemic to areas of sub-Saharan Africa, while Chagas disease, a manifestation of Trypanosoma cruzi infection, is prevalent throughout Central and South America. In addition, many species of Leishmania are responsible for a range of cutaneous and visceral diseases, causing ulcers, destructive lesions and kalaazar, a lethal infection of the viscera. Collectively, these organisms infect 30 million people worldwide (~500 million live in endemic areas), and account for ~130,000 deaths annually. Given their debilitating and prevalent nature, trypanosomatid parasites impose a heavy medical, economic and social burden on entire populations, primarily in the developing world. The problem is further exacerbated by the fact that existing treatments have progressed little in the past 50 years, and current drugs show high toxicity and poor efficacy. […] Blood-stream stages of T. brucei are entirely dependent on glycolysis as a source of ATP, and the tricarboxylic acid cycle and oxidative phosphorylation are both repressed. Glycolysis in axenically cultured T. cruzi, representing the intracellular pathogenic stage, is also essential for these parasites. […] Previous studies have shown that the glycolytic enzyme, phosphoglycerate kinase (PGK), is a viable target for drugs to kill these parasites. […] NIH Molecular Libraries Probe Production Network [MLPCN] NIH Chemical Genomics Center [NCGC] MLPCN Grant: R03 MH093212 PI Name: Malcolm Walkinshaw, University of Edinburgh
# 3ul of substrate/PGK buffer (columns 1,2,5-48) are dispensed into Greiner white solid bottom 1536-well assay plates; columns 3-4 receive only TEA buffer as 0x PGK controls. Compounds are then transferred via Kalypsys pin tool equipped with 1536-pin array (10nl slotted pins, V&P Scientific, San Diego, CA). Following addition of compound, 1ul of GAPDH (100nM final concentration, all columns) is added to initiate the reaction (this upstream coupling enzyme is necessary for in-well production of PGK substrate, 1,3-bisphosphoglycerate (1,3-BPG), which is unstable and not commercially available). The plates are then incubated at room temperature for 60 minutes. Kinase-Glo Plus reagent is added (2ul) and plates incubated for 10 minutes, before being transferred to a ViewLux high-throughput CCD imager (PerkinElmer) wherein single end-point measurements of luminescence are acquired using a clear filter. All reagents are diluted in an assay buffer consisting of 100mM TEA (pH 7.6), 5mM MgCl2 and 0.01% Tween-20.
row,Structure (SMILES),"activity change, negative = inhibition"
1,COc1ccc(Br)c(C(=O)NCC2(N3CCCCC3)CCCCC2)c1,inactive: -0.958%
2,COc1cc(C(=O)NCC2(N(C)C)CCCCC2)cc(OC)c1OC,inactive: -4.95%
3,Cc1cccc(C(=O)NCC2(N(C)C)CCCCC2)c1,inactive: 7%
4,C=C(C)C#CC(O)(C(=O)OC1CCN(C)CC1)c1ccccc1 (stereo not given),inactive: -6.76%
5,CN(C)c1cccc(C(=O)NCC2(N(C)C)CCCCC2)c1,inactive: -8.33%
6,O=C(OCCN1CCCC1)C(O)(c1ccccc1)c1ccccc1,inactive: -4.53%
7,CC(C)Oc1ccc(C(=O)NCC2(N(C)C)CCCCC2)cc1,inactive: 5.89% and inactive: 5.65%
8,O=C(OC1CN2CCC1CC2)C(CO)(c1ccccc1)c1ccccc1 (stereo not given),inactive: 1.39%
9,COc1cccc(C(=O)NCC2(N3CCOCC3)CCCCC2)c1,inactive: -18.9%
10,CC(C)COc1ccc(C(=O)NCC2(N(C)C)CCCCC2)cc1,inactive
11,COc1ccc(C(=O)NCC2(N(C)C)CCCCC2)cc1Cl,inactive: 2.44%
12,COc1ccc(Cl)cc1C(=O)NCC1(N(C)C)CCCCC1,inactive: -6.09%
13,COc1cccc(C(=O)NCC2(N3CCCCC3)CCCCC2)c1,inactive: -1.18%
14,O=C(NCC1(N2CCCCC2)CCCCC1)c1cccc(Cl)c1,inactive: 3.9%
15,CN(C)C1(CNC(=O)c2ccc(Br)cc2)CCCCC1,inactive: -2.44%
16,O=C(NCC1(N2CCCCC2)CCCCC1)c1cc(F)c(F)cc1Cl,inactive: -6.29%
17,C=CCN1CCN(CCOC(=O)C(O)(c2ccccc2)c2ccccc2)CC1,inactive: -8.73%
18,O=C(NCC1(N2CCCCC2)CCCCC1)c1cccc(Br)c1,inactive: -5.33%

row,Structure (SMILES),"activity change, negative = inhibition"
1,CCN1CCCC(OC(=O)C2(O)c3ccccc3C=Cc3ccccc32)C1 (stereo not given),inactive: -0.719%
2,Cc1cc(C(=O)NCC2(N3CCCCC3)CCCCC2)ccc1[N+](=O)[O-],inactive
3,CCOc1cccc(C(=O)NCC2(N(C)C)CCCCC2)c1,inactive: -3.01%
4,COc1ccc(C(=O)NCC2(N(C)C)CCCCC2)cc1,inactive: -1.96%
5,CN(C)c1ccc(C(=O)NCC2(N(C)C)CCCCC2)cc1,inactive: -3.12%
6,CN(C)C1CCCC1OC(=O)C(O)(c1ccccc1)c1ccccc1 (stereo not given),inactive: -4.58%
7,Cc1ccccc1C(=O)NCC1(N2CCCCC2)CCCCC1,inactive
8,CN(C)C1(CNC(=O)c2ccccc2[N+](=O)[O-])CCCCC1,inactive: 1.37%
9,CCCCOc1ccccc1C(=O)NCC1(N(C)C)CCCCC1,inactive: -4.97%
10,CC(C)N1C(=O)CC2(CCN(CCOC(=O)C(O)(c3ccccc3)c3ccccc3)CC2)C1=O,inactive: 4.99%
11,COc1cc(SC)ccc1C(=O)NCC1(N(C)C)CCCCC1,inactive: 1.52%
12,CN(C)C1(CNC(=O)c2cccc(Cl)c2)CCCCC1,inactive: 1.24%
13,CCN(CC)CC(C)C(C)OC(=O)C(O)(c1ccccc1)c1ccccc1 (stereo not given),inactive: -9.56%
14,CN(C)C1(CNC(=O)c2ccccc2F)CCCCC1,inactive: -0.802%
15,Cc1ccc(C(=O)NCC2(N3CCCCC3)CCCCC2)cc1,inactive: -5.92%
16,O=C(NCC1(N2CCCCC2)CCCCC1)c1cc([N+](=O)[O-])ccc1Cl,inactive
17,CN1[C@@H]2CC[C@H]1CC(OC(=O)C(O)(c1ccccc1)c1ccccc1)C2 (stereo not given in full),inactive
